Reference: BindingDB's records for 22001085

The chains behind the UniProt entries cited, without tags or fusion partners.
UniProt Q29550, whole entry, looked up: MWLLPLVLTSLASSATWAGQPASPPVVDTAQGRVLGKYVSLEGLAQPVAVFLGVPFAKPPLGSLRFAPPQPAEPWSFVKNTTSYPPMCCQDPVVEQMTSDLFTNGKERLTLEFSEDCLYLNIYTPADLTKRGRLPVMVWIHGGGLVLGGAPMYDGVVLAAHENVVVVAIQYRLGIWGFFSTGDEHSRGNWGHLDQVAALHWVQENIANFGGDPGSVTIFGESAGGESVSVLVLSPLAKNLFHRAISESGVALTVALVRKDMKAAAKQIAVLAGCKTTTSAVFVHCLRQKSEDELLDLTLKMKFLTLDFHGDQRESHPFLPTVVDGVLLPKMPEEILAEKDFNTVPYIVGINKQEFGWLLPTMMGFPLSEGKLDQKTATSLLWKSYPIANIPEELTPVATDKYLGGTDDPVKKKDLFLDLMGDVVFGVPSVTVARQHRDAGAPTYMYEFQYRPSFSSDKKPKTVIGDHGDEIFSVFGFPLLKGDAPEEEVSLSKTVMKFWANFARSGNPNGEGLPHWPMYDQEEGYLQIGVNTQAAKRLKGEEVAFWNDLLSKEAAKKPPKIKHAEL

Each compound was assayed against Liver carboxylesterase (Sus scrofa, UniProt Q29550).
In the case of `CC(C)(C(=O)NCCn1cc(COP(C)(=O)OC(C(F)(F)F)C(F)(F)F)nn1)N(Cc1ccccc1)C(=O)C(F)(F)F` (stereo not given), the IC50 is reported as 145 µM.
Compound `CC(C)[C@@H](Cn1cc(COP(C)(=O)OC(C(F)(F)F)C(F)(F)F)nn1)NC(=O)CN(Cc1ccccc1)C(=O)[C@H](C)NC(=O)OC(C)(C)C` (stereo not given in full) has an IC50 of 785 µM.
`COC(=O)C(OP(C)(=O)OCc1cn(C[C@@H](NC(=O)CN(Cc2ccccc2)C(=O)C(F)(F)F)C(C)C)nn1)C(F)(F)F` (stereo not given in full) gave an IC50 of 158 µM.
In the case of `CC[C@H](C)[C@H](NC(=O)OC(C)(C)C)C(=O)N(Cc1ccc(OC)cc1OC)C(C)(C)C(=O)N[C@@H](C)Cn1cc(COP(C)(=O)OC(C(F)(F)F)C(F)(F)F)nn1` (stereo not given in full), the IC50 is reported as 825 µM.
Compound `C[C@@H](Cn1cc(COP(C)(=O)OC(C(F)(F)F)C(F)(F)F)nn1)NC(=O)CN(Cc1ccccc1)C(=O)C(F)(F)F` (stereo not given in full) has an IC50 of 182 µM.
